Measured values as given in US20250352676A1, “N-Cyclopropyl-1-(4-(4-(Fluoro-18f)Phenyl)Pyrimidin-5-Yl)-N-Methylpiperidine- 4-Carboxamide and Uses in PET Imaging” (Emory University, priority 2022, published 2025).

Chains of the proteins cited; added tags and fusions are not shown. Residues count along the entry.
UniProt I2CYF7, 29-500: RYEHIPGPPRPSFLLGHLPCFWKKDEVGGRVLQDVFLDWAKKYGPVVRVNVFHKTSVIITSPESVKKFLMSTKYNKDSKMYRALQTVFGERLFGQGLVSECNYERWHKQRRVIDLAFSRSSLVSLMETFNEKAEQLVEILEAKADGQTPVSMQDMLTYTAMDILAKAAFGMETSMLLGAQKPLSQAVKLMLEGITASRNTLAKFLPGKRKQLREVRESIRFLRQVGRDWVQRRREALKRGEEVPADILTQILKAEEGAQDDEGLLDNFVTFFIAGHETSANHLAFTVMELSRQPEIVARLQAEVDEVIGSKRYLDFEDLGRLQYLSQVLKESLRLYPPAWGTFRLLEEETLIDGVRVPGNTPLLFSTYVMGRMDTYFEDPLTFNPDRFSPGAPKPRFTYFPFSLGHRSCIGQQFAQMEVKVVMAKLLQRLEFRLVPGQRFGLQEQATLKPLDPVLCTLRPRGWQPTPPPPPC

Target: CYP46A1 (Macaca mulatta, UniProt I2CYF7)
Assay: Target occupancy PET study in rhesus monkeys
Assay type: in vivo
Parameters: from tissue; host or cells: brain of living rhesus monkeys
Conditions: rhesus monkey, iv, read-out: D50 (dose that exhibits 50% target occupancy)
Experimental: To test whether targeted visualization and quantitative assessment of drug-CYP46A1 interactions in the brain of NHPs could be obtained with this PET tracer, a dose-response experiment was performed using soticlestat as a model compound. Using a broad array of soticlestat intravenous doses, ranging from 0.04 to 0.9 μmol/kg, a consistent dose-dependent PET signal attenuation was observed, which allowed target occupancy modeling with noteworthy model accuracy across different brain regions.
Four rhesus monkeys (4.8 to 9.3 kg) were anesthetized by intramuscular injection of ketamine (10 mg/kg) and then put on the MRI scanning bed in the supine position. Whole-brain images were acquired. […] Whole-blood samples were collected from an arterial catheter to measure radioactivity in whole blood and plasma. Samples were centrifuged, and 100 μl of whole blood and plasma was measured in a gamma counter at 10, 20, 30, 40, 50, 60, 75, 90, 105, 120, 150, 180, 210, 240, 600, 900, 1200, 1800, 2700, 3920, 4500, and 5400 s after 18F-CHL-2205 injection. […]
Then, the mixture was injected into a high-performance liquid chromatography (HPLC) system equipped with a semipreparative IIPLC column and an ultraviolet detector with the wavelength set at 254 nm. […] The HPLC fractions were collected at 30-s intervals for 13 min; each fraction was counted with automatic gamma well counter. […]

## O=C(c1cccnc1-c1ccncc1)N1CCC(O)(Cc2ccccc2)CC1 [soticlestat]
  ED50: ~0.1 µmol/kg
